The text below walks through data of PMC3390344, “Antibacterial Activity and Mechanism of a Scorpion Venom Peptide Derivative In Vitro and In Vivo” (PLoS ONE, 2012).

In the assay the test system is methicillin-resistant coagulase-negative Staphylococcus (MRCNS) P1369. Type of assay: cell-based. As to conditions: P1369, methicillin resistant (MRCNS) clinical isolate; repeated at least three times. Here is the method: Clinical isolates were obtained from the 302nd military hospital of Beijing, China, including penicillin-resistant S. aureus (PRSA) P1383, penicillin-resistant S. epidermidis (PRSE) P1389, methicillin-resistant S. aureus (MRSA) P1381, P1386 and P1374, methicillin-resistant coagulase-negative Staphylococcus (MRCNS) P1369, and penicillin-sensitive S. epidermidis (PSSE) P1111.
The MIC was determined via a microdilution assay in 96-well microtiter plates according to the broth microdilution guideline of Clinical and Laboratory Standards Institute (CLSI).

For orientation: MIC means the least concentration at which growth counts as inhibited. Read a high MIC as weaker potency.

Take Penicillin: the MIC was 20 mg/mL.
